Most compounds without a hit are left out; they make up all but 2.3% or so of the library.
Nrf2 activator – activates Nrf2 signaling; AREc32 ARE-luciferase reporter (MCF7-derived line), luminescence, 24 h; Potency, µM (titrated, usually from 46.1 µM), usual class: activators; hit rate 0.31% among 410,000; AID 624171; note: nearly all actives have a fitted effect of over 65% in size
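Luciferase luminescence (Steady-Glo, 30 min at room temperature) served as the read-out of ARE activation in AREc32 cells treated with compounds for 24 hr at 37 deg C.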
A549 viability – kills or reduces viability of A549 cells in Nrf2 counter-screen; A549 ARE-Fluc cells, CellTiter-Fluor viability, 18-24 h; Potency, µM (highest dose often 46 µM), actives largely listed as inhibitors; hit rate 0.16% among 390,000; AID 504648
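A549 ARE-Fluc cells in 5% FBS OPTI-MEM, 5000 cells/well, rested 2 h then exposed to compounds in concentration-response for 18-24 h at 37 °C. Viability by CellTiter-Fluor fluorescence (Ex 405/Em 525) after 30 min; luciferase luminescence (BugLite, 15 min, RT) read afterwards.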
Mito fusion act – blocks mitochondrial division or promotes mitochondrial fusion | S. cerevisiae fusion-defective mutant growth rescue, CellTiterGlo 48 h | Potency, µM (highest dose often 46.1 µM), usual class: activators | hit rate 0.23% among 320,000; note: nearly all actives have a fitted effect of over 45% in size
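Yeast fusion mutant, YPEG (non-fermentable carbon), compound, 48 h at 37C non-permissive; CellTiterGlo added, 10 min RT, luminescence read. Rescued growth = division inhibition.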
Nrf2 inh – inhibitors of Nrf2 signaling | AID 504444 | A549 ARE-Fluc reporter, luciferase luminescence, 18-24 h | Potency, µM (highest dose often 46 µM), most hits filed as inhibitors | hit rate 2.1% among 360,000; note: nearly all actives have a fitted effect of over 60% in size
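Reporter: ARE-Fluc in A549. Exposure: 18-24 h, 37 °C, 5% CO2, 5% FBS OPTI-MEM. Readouts: fluorescent cytotoxicity (CellTiter-Fluor), then luminescent Nrf2 signal after BugLite.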
miR-21 reporter – raises the signal of a miR-21 reporter | HeLa miR-21 FLuc reporter, luciferase, 48 h | Potency, µM (doses to about 38.3 µM) | 340,000 tested, under 10 active | AID 2288; active = well fitted rising curve with a large enough effect; inconclusive = small, poorly fitted or top-dose-only effect; inactive = no such curve, though single readings can be large or run the other way;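 note: miR-21 action dims this reporter so a rising signal means less miR-21 action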
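Using DMEM plus 10% FBS, HeLa miR-21-FLuc cells are incubated with test compounds (final up to about 40uM) for 48 hours; firefly luciferase signal is then imaged following reagent-mediated lysis.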
Hits are given with their value; i = inactive; ? = inconclusive; nt = no result. Unless noted, calls come from the whole dose curve; as a rule, active = well fitted curve in the direction sought with a large enough effect; inconclusive = small, poorly fitted or top-dose-only effect, or another doubt; inactive = no such curve, though single readings can be large; an effect the other way counts as inactive or inconclusive.

SMILES | Nrf2 activator | A549 viability | Mito fusion act | Nrf2 inh | miR-21 reporter
CCn1c(C)c(C)c2cc(C(=O)NCC(C)c3ccccc3)ccc21 (stereo unspecified) | i | i | nt | ? | i
O=C(NCC1CC1)c1ccc2nc(-c3ccoc3)c(-c3ccoc3)nc2c1 | nt | i | nt | i | nt
Cc1cc(C(=O)NC2CCCc3c2cnn3-c2ccc(C(C)(C)C)cc2)nn1C (stereo unspecified) | i | i | i | 2.6µM | i
COc1ccc(C(=O)NC2CCCc3c2cnn3-c2cc(F)cc(F)c2)c(OC)c1OC (stereo unspecified) | i | i | 11µM | i | i
CC(C)(C)c1ccc(-n2ncc3c2CCCC3NC(=O)CN2CCCCC2=O)cc1 (stereo unspecified) | i | i | 4.5µM | ? | i
COc1cccc(C2c3c(ncn(-c4cccc(Cl)c4)c3=N)Oc3ccc4ccccc4c32)c1 (stereo unspecified) | nt | i | nt | i | nt
CSc1ccc(NC(=O)C2CCN(c3ncccn3)CC2)cc1 | i | i | nt | i | i
COc1ccc2[nH]c(=O)c(CN(Cc3cccs3)S(=O)(=O)c3c(C)ccc4nsnc34)cc2c1 | i | nt | i | 9.2µM | i
Cc1ccc2[nH]c(=O)c(CN(Cc3ccco3)S(=O)(=O)c3c(C)ccc4nsnc34)cc2c1 | i | i | i | ? | i
O=C(OCc1ccccc1Cl)c1ccc(-c2nnn(Cc3ccccc3)n2)cc1 | i | i | nt | i | i
COc1ccc(/C=C2\CCC/C(=C\C=N\N(C)C)C2=O)cc1 | 14µM | i | i | i | i
CN(C)/N=C/C=C1\CCC/C(=C\c2ccc(F)c(F)c2)C1=O | 18µM | i | i | ? | ?
COc1ccccc1C(=O)N(Cc1nc(-c2ccc(Cl)cc2)no1)C(C)C | i | i | i | 21µM | i
Cc1occc1C(=O)N(C)Cc1nc(-c2ccc(Cl)cc2)no1 | i | ? | i | 21µM | i
Cc1ccc(-c2noc(CN(C)C(=O)c3ccoc3C)n2)cc1 | i | i | i | i | i
Cc1ccccc1C(=O)N(Cc1nc(-c2ccc(Cl)cc2)no1)C(C)C | i | i | nt | ? | i
CCc1c(C#N)c(SCCC(=O)Nc2cccc(OC)c2)nc2c1C(=O)CC(C)(C)C2 | i | i | i | ? | i
CCc1c(C#N)c(SCCC(=O)Nc2ccc(F)cc2)nc2c1C(=O)CC(C)(C)C2 | i | ? | i | 18µM | i
Cc1ccc(C(=O)Nc2nc3c(s2)CCCC3)o1 | i | i | i | ? | i
O=C(Nc1nc2c(s1)CCCC2)c1ccc(Br)o1 | 13µM | i | i | ? | i
CC(=O)NN1C(=O)/C(=C/c2ccc(Br)o2)SC1=S | ? | ? | i | ? | i
CC(=O)NN1C(=O)/C(=C\c2ccc(Br)o2)SC1=S | 16µM | i | i | i | i
O=C1c2ccccc2C(=O)c2c1cccc2N(CCO)CCO | i | ? | i | i | i
O=C1C=C(N(CCO)Cc2ccccc2)c2ccccc2C1=O | i | 23µM | i | 21µM | ?
Cc1ccc(CN2C(=O)C(O)(c3c[nH]c4ccccc34)c3cc(Cl)ccc32)cc1 (stereo unspecified) | i | ? | nt | i | ?
SMILES | Nrf2 activator | A549 viability | Mito fusion act | Nrf2 inh | miR-21 reporter
c1ccc(C2=Nn3c(nnc3-c3cccs3)SC2)cc1 | ? | i | i | i | i
c1csc(C2=Nn3c(nnc3-c3ccncc3)SC2)c1 | i | i | i | 16µM | i
Cc1ccc(OCC(=O)Nc2ccc3nc(SCC(=O)N4CCOCC4)sc3c2)cc1 | i | i | nt | ? | i
CCCC(c1nnnn1CC1CCCO1)N1CCN(c2cc(Cl)ccc2C)CC1 (stereo unspecified) | i | ? | i | 26µM | i
Cc1ccc(Cl)cc1N1CCN(C(CC(C)C)c2nnnn2CC2CCCO2)CC1 (stereo unspecified) | i | i | i | nt | i
COc1ccc(-c2nnc3n2N=C(c2cc(OC)ccc2OC)CS3)c(OC)c1 | nt | i | nt | i | nt
Cn1c(CSCc2ccc(F)cc2)nnc1SCC(=O)Nc1nccs1 | i | ? | i | 18µM | i
Cn1c(CSCc2ccc(F)cc2)nnc1SCC(=O)N1CCN(c2ccccc2)CC1 | i | i | i | 13µM | i
Clc1cccc(CSc2nncn3c2cc2sccc23)c1 | i | i | nt | ? | i
COc1ccc(C(=O)Nc2ccc(Cc3ccncc3)cc2)cc1Br | i | ? | i | 18µM | i
CCN(CC)S(=O)(=O)c1ccc(C(=O)Nc2ccc(Cc3ccncc3)cc2)cc1 | i | i | i | 21µM | ?
COc1ccc(C(=O)Nc2ccc(OC)c([N+](=O)[O-])c2)cc1Br | i | i | i | 21µM | i
CCN(CC)C(=O)Cn1cc(SCC(=O)Nc2cc(OC)ccc2OC)c2ccccc21 | i | i | nt | i | i
CCOc1cc2sc(N3CCC(C(=O)Nc4ccc(CC)cc4)CC3)nc2cc1Br | i | i | nt | ? | i
O=c1ccc2c(OCCCCc3ccccc3)c3ccoc3cc2o1 | nt | nt | 5.2µM | nt | nt
CC1CCc2[nH]c3ccc(C(=O)N(C)CC(=O)Nc4ccc(F)cc4)cc3c2C1 (stereo unspecified) | i | i | i | i | i
CCN(CC(=O)Nc1ccccc1C(F)(F)F)C(=O)c1ccc2[nH]c3c(c2c1)CC(C)CC3 (stereo unspecified) | i | ? | ? | 26µM | nt
O=C(NC1CCCCC1)N1CCN(c2ccc([N+](=O)[O-])cc2)CC1 | i | i | i | 23µM | i
O=C(NC1CCCCC1)N1CCN(c2ccc(Cl)cc2)CC1 | i | i | i | ? | i
Cc1noc(C)c1CSCC(=O)N1CCN(c2ccc([N+](=O)[O-])cc2)CC1 | i | ? | i | 21µM | i
Cc1ccc(CC(=O)N2CCN(c3ccc([N+](=O)[O-])cc3)CC2)cc1 | i | ? | i | 21µM | i
Cc1ccc(-c2cc3nc(C)cc(C)n3n2)cc1 | ? | i | i | ? | i
Cc1cc(C)n2nc(-c3ccccc3)cc2n1 | 8.9µM | i | i | ? | i
CCN(CC)C(=O)C1CCCN(c2ncnc3c2cnn3-c2cccc(C)c2)C1 (stereo unspecified) | i | i | i | i | i
CCN(CC)C(=O)C1CCCN(c2ncnc3c2cnn3-c2ccc(Cl)cc2)C1 (stereo unspecified) | i | i | i | 21µM | i
SMILES | Nrf2 activator | A549 viability | Mito fusion act | Nrf2 inh | miR-21 reporter
Cc1ccc(Cl)cc1NC(=O)CSc1nc2c(c(=O)[nH]1)CN(Cc1ccccc1)CC2 | i | i | nt | ? | i
Nc1ccc(S(=O)(=O)N2CCN(S(=O)(=O)c3ccc4c(c3)OCCO4)CC2)cc1 | nt | i | nt | i | nt
COC(=O)c1sc(NC(=S)NC(=O)c2ccc(F)cc2)nc1C | nt | nt | i | nt | i
COC(=O)c1sc(NC(=S)NC(=O)c2cccc(Br)c2)nc1C | 16µM | i | i | i | i
O=C(CSc1nnc(-c2cccnc2)o1)c1cc2ccccc2oc1=O | 7.1µM | i | i | nt | i
O=C(CSc1nnc(-c2cccnc2)o1)Oc1ccccc1 | i | i | i | i | i

Source: PubChem BioAssay (National Center for Advancing Translational Sciences (NCATS))
